Series [1] in a line: clinical. The following applies: human, oral.
Series [2] can be described thus: clinical. The following applies: human, plasma.

In general, half-life refers to the time in which the quantity being followed falls by half. Low readings indicate rapid decline, high ones slow decline. Turning to `CCCN[C@@H]1CCc2nc(N)sc2C1` [(R)-pramipexole, (6R)-4,5,6,7-tetrahydro-N6-propyl-2,6-benzothiazole-diamine], the half-life is 6.28 ± 1.48 h in “clinical [1]” (in vivo, 150 mg); 6 to 7 h in the series “clinical [1]” (plasma); 6.96 ± 1.3 h in “clinical [2]” (oral, 50 mg); 7.88 ± 1.19 h in the series “clinical [2]” (oral, 100 mg); 6.57 ± 0.88 h in “clinical [2]” (po, 100 mg).

Values taken from patent publication US9849116B2 (KNOPP BIOSCIENCES LLC, priority 2008, dated 2017).
